Measured values as given in patent US8173695B2, “Kappa selective opioid receptor antagonist” (Eli Lilly and Company, priority 2008, dated 2012).

By UniProt entry, the sequences of proteins in these tests, tags left out. Where a name states a change or a piece, a line headed by the entry shows the natural chain unless it says otherwise.
UniProt P41145: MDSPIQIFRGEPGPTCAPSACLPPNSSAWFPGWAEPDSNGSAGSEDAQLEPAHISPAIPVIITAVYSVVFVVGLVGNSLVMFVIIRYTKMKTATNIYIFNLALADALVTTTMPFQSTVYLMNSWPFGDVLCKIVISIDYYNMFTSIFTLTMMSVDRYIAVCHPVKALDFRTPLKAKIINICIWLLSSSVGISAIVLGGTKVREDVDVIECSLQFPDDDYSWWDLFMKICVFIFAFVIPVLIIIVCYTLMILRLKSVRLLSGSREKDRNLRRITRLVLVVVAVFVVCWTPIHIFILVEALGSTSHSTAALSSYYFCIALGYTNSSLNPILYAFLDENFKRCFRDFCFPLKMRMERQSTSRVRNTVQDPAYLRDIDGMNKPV
UniProt P35372, whole entry: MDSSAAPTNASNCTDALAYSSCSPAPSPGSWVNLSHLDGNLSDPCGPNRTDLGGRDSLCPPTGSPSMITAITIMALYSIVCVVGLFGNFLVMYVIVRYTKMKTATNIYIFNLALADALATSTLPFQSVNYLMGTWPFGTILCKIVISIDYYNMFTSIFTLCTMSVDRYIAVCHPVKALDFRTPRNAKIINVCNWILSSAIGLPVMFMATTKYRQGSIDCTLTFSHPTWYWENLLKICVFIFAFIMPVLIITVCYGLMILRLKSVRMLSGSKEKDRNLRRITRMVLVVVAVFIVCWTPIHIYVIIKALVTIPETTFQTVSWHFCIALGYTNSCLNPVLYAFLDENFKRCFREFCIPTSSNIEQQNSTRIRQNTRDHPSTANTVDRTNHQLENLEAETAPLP
UniProt P41143, whole entry: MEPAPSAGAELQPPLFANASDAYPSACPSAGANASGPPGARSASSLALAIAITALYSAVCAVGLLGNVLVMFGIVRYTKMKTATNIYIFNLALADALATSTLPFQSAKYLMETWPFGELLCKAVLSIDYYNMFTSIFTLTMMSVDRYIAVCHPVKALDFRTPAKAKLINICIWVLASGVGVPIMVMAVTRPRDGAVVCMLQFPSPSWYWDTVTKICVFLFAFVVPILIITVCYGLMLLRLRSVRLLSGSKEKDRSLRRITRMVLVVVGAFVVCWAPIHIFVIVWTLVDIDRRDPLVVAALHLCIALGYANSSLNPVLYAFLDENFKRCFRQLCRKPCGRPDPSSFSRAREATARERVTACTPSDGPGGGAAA

Tests used:
[1] = target: kappa-opioid receptor (KOR), hKappa (Homo sapiens, UniProt P41145); experiment: GTP-γ-S binding assay, opioid receptor in vitro antagonism (vs U69593 300 nM); type: biochemical; conditions: geometric mean (SEM, n)
[2] = target: mu-opioid receptor (MOR), hMu (Homo sapiens, UniProt P35372); experiment: GTP-γ-S binding assay, opioid receptor in vitro antagonism (vs DAMGO 1 micromolar); type: biochemical; conditions: geometric mean (SEM, n)
[3] = target: delta-opioid receptor (DOR), hDelta (Homo sapiens, UniProt P41143); experiment: GTP-γ-S binding assay, opioid receptor in vitro antagonism (vs DPDPE 30 nM); type: biochemical; conditions: geometric mean (SEM, n)
Mu opioid receptor = Mu opioid receptor (Homo sapiens, UniProt P35372); experiment: biochemical
Delta opioid receptor = Delta opioid receptor (Homo sapiens, UniProt P41143); experiment: biochemical
Kappa opioid receptor = Kappa opioid receptor (Homo sapiens, UniProt P41145); type: binding; conditions: geometric mean (SEM, n)

Kb [1] [nM]	Kb [2] [nM]	Kb [3] [nM]	Ki (Mu opioid receptor) [nM]	Ki (Delta opioid receptor) [nM]	Ki (Kappa opioid receptor) [nM]	SMILES
5.43	56.7	293	12	170	0.225	Cc1cc(C)cc(C2CCCN2Cc2ccc(Oc3ccc(C(N)=O)cc3F)cc2)c1 (racemic) [Example 1, 4-{4-[2-(3,5-Dimethyl-phenyl)-pyrrolidin-1-ylmethyl]-phenoxy}-3-fluoro-benzamide]
2.12	40.1	264	16.4	122	0.597	Cc1cc(C)cc([C@@H]2CCCN2Cc2ccc(Oc3ccc(C(N)=O)cc3F)cc2)c1 (single isomer, unassigned) [Example 1A]
	69.6	220			13.9	Cc1cc(C)cc([C@@H]2CCCN2Cc2ccc(Oc3ccc(C(N)=O)cc3F)cc2)c1 (single isomer, unassigned) [Example 1B, 4-{4-[2-(3,5-Dimethyl-phenyl)-pyrrolidin-1-ylmethyl]-phenoxy}-3-fluoro-benzamide]
